{
  "source": "patent US20030232019A1",
  "about": "“Inhalable formulations for sustained release” (Advanced Inhalation Research, Inc., priority 2002, published 2003)",
  "origin": "cited, not measured here",
  "key": {"[1]": {"conditions": "human subjects; dry powder formulation, pulmonary delivery"}, "[2]": {"conditions": "primates; dry powder formulation, pulmonary delivery"}},
  "note": "Where two headings read alike, the source gives them in different places.",
  "data": [
    {"substance": "insulin", "values": [
      {"measurement": "time at which the peak insulin level was reached", "setting": "[1]", "result": "about 20 minutes"},
      {"measurement": "time at which the peak insulin level was reached", "setting": "[2]", "result": "about 30 minutes"}
    ]}
  ]
}
